The target of test [1] is T1, BTK (Homo sapiens, UniProt Q06187). As to the kind of experiment: Btk inhibition. The test is classed as biochemical. More on the design: purchased Reaction Biology Corp.
Test [2] concerns the target T1, BTK. As to the kind of experiment: Inhibition of BTK and PLCγ2 phosphorylation in Ramos cells. In kind it is cell-based. To be noted: read-out: EC50, inhibition of phosphorylation of the auto-phosphorylation site on BTK (Tyr223).

Amino acid sequences for entries named in this document (tags omitted). A change or cut given only in a name is not applied to a line headed by its entry.
UniProt Q06187: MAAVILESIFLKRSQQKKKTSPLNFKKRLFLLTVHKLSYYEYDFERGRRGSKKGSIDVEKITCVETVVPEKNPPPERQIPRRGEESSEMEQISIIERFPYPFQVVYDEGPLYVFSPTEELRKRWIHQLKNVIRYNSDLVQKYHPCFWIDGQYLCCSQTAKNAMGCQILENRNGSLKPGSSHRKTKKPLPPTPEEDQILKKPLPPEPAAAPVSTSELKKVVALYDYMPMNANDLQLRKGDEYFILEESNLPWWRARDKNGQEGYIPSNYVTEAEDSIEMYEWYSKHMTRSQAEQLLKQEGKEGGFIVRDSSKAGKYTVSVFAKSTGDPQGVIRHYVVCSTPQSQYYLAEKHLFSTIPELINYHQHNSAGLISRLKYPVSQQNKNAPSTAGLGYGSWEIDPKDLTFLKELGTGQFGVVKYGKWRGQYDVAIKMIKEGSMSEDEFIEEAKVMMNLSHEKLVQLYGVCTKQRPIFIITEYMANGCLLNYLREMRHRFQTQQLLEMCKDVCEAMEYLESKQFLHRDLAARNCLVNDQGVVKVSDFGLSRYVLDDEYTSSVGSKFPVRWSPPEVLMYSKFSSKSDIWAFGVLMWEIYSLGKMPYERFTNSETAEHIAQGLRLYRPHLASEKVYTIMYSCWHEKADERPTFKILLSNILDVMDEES

As to `C=CC(=O)Nc1cccc(Nc2nc(Nc3ccc(OCCOC)cc3)ncc2F)c1.O=S(=O)(O)c1ccccc1` [Compound 1 besylate, N-(3-(5-fluoro-2-(4-(2-methoxyethoxyl)phenylamino)pyrimidin-4-ylamino)phenyl)acrylamide besylate], the IC50 (commonly the concentration that inhibits the measured activity by half) in test [1] was below 0.5 nM.
Consider `C=CC(=O)Nc1cccc(Nc2nc(Nc3ccc(OCCOC)cc3)ncc2F)c1` [Compound 1, N-(3-(5-fluoro-2-(4-(2-methoxyethoxyl)phenylamino)pyrimidin-4-ylamino)phenyl)acrylamide], for which the concentration for a half-maximal effect (EC50) (commonly the midpoint of the concentration-response curve) in test [2] is 1 to 10 nM.
